What is called Kd is the equilibrium constant for the complex coming apart.

Where two headings read alike, the source gives them in different places.

The conditions of experiment [1]: read-out: Kd, 6-MAM; from IC50 against 2 nM [H^3]-morphine, 20 or 60 nM antibody.
The conditions of experiment [2]: read-out: Kd, heroin; from IC50 against 2 nM [H^3]-morphine, 20 or 60 nM antibody.
For experiment [3] the following is noted: read-out: Kd, hydrocodone; from IC50 against 2 nM [H^3]-morphine, 20 or 60 nM antibody.

B1: UK6Mab02: fully humanized antibody (H1L3) designed from Ab13, with human IgG1 heavy and kappa light constant regions (antibody, V domains shown)
VH: EVQLVQSGAEVKKPGASVKISCKASGYTFTSYWIEWVKQAPGKGLEWIGEINPSGGSTIYAEKFQGRATFTADTSTSTAYMELSSLRSEDTAVYYCARWVLDYYGMDYWGQGTSLTVSS
VL: QAVVTQEPSLTVSPGGTVTLTCGSSTGAVTSGNYANWVQQKPGQAFRGLIGGTNTRSSGVPDRFSGSLLGGKAALTISGAQPEDEAEYYCALWYSNKLVFGGGTKLTVL
modifications: H1 (UK6Mab02) Heavy Chain; L3 (UK6Mab02) - Light chain
For B1, the dissociation constant (Kd) stood at 11.9 nM in experiment [1], 11.8 nM in experiment [2] and 39.3 nM in experiment [3].

The record behind these values is patent publication US12065507B2 (priority 2020, dated 2024).
